Sampled rows, rich in hits. Any-hit rate of the full collection: about 2.1%.
SMARCA2 activ – increases SMARCA2 function in MMTV reporter cells | MG213 cells, MMTV-luciferase reporter, dexamethasone, overnight | activation, % at 9.1 µM | 370,000 compounds, 1% hits; in the data active = activation above about 7.8%;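 note: 0% = vehicle wells and 100% = reference activator wells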
Rev-erbA mod – modulates human Rev-erb alpha binding to DNA; activity, % at 10 µM; Rev-erbα–FITC-DNA binding, fluorescence polarization, 90 min; 370,000 compounds, 0.79% hits; P20393; AID 1259318;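 active = activity above about 14%, limit read from the data; passing the limit was not always enough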;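 note: 0% = DMSO wells with 35 nM protein and 100% = DMSO wells with 750 nM protein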
ERp5 block – inhibitors of human ERp5 | Q15084 | ERp5 insulin aggregation, absorbance 650 nm, 90 min | inhibition, % at 9.99 µM | 350,000 compounds, 0.05% hits;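 active = mean replicate inhibition above about 25%, with every replicate also reaching it, limit read from the data, passing the limit was not always enough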
Yeast UUG start – yeast start codon fidelity modulation. S. cerevisiae UUG-firefly luciferase reporter, luminescence/redox ratio. activity score, % at 18.7 µM. 0.13% of 350,000 active;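 active means replicate mean at a twofold rise or more, about +100% in these data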;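 further: firefly luciferase made from a UUG start codon reports start codon fidelity; reporter light over untreated wells divided by growth signal over untreated wells; some hits fall short of that in this replicate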
GSIS activator – GLuc luminescence reporter in INS-1E cells, primary screen for activators of glucose-dependent secretion of insulin. 370,000 compounds, 0.61% hits. activation, % at 16.6 µM. INS-1E GLuc reporter insulin secretion, 2-3 h;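 active = lowest replicate activation of at least 40%, so every replicate reaches that level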;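 note: 0% = median of neutral control wells and 100% = median of IBMX positive control wells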
PDI turbidity – blocks human protein disulfide isomerase activity. PDI insulin aggregation turbidity, A650, 90 min. inhibition, % at 10 µM. 350,000 compounds, 0.052% hits;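 active = mean inhibition across replicates of 30% or more, whatever share of single replicates reach that level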
Rev-erbA confirm – confirmation of modulators of human Rev-erb alpha DNA binding | shares compounds with Rev-erbA mod | activation, % at 25 µM | AID 1259319 | Rev-erb alpha FITC-DNA binding, fluorescence polarization, 90 min | 3,000 compounds, 61% hits;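 active = activation at or above a set limit, or at least 3 SD above the negative control mean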;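 note: 0% = 35 nM protein with DMSO and 100% = 750 nM protein high control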
RORg counter – affects RORgamma DNA binding in a Rev-erb alpha counter-screen | AID 1259320 | IC50, µM | shares compounds with Rev-erbA mod | 910 compounds, 8% hits | purified RORgamma protein-FITC-DNA binding, fluorescence polarization;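 active = Compounds whose fitted half-maximal concentration for disrupting protein-DNA binding is below 10 micromolar; the record names Rev-erb in its text, so the target is in doubt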
The depositor's hits bear a star.

Results for O=C(CSC1=Nc2ccccc2C2CC=NN12)Nc1ccc(F)c(F)c1F (stereo not drawn) ?
SMARCA2 activ: -3; Rev-erbA mod: 18*; ERp5 block: 7; Yeast UUG start: -15; GSIS activator: 0; PDI turbidity: -11; Rev-erbA confirm: 6

How did CCCCOC(=O)c1ccc(NC(=O)CSC2=Nc3ccccc3C3CC=NN23)cc1 (stereo not drawn) do in these assays?
SMARCA2 activ: 0; Rev-erbA mod: 4; Yeast UUG start: -17; PDI turbidity: 0

How did CCOC(=O)c1cnc(SCC(=O)N2CCN(c3ccccc3)CC2)nc1N do in these assays?
SMARCA2 activ: 0; Rev-erbA mod: 7; Yeast UUG start: -11; GSIS activator: 12; PDI turbidity: 1

How did CCOC(=O)c1cnc(SCC(=O)N2CCc3ccccc32)nc1N do in these assays?
SMARCA2 activ: 2; Rev-erbA mod: 49*; Yeast UUG start: -9; GSIS activator: -2; PDI turbidity: 2; Rev-erbA confirm: 7

Results for CN1CCN(C(=O)C[C@@H]2CC[C@@H]3[C@H](COC[C@H](O)CN3C(=O)Nc3ccc(Cl)cc3)O2)CC1 ?
ERp5 block: -7; Yeast UUG start: 2; GSIS activator: -1

Results for COc1nc(-c2ccc(Cl)cc2)ccc1-c1noc(-c2ccco2)n1 ?
SMARCA2 activ: -2; Rev-erbA mod: 31*; Yeast UUG start: -10; GSIS activator: 66*; PDI turbidity: -1; Rev-erbA confirm: 1

Results for COc1nc2c(C)cccc2cc1-c1noc(-c2ccco2)n1 ?
SMARCA2 activ: 3; Rev-erbA mod: 20*; Yeast UUG start: -6; PDI turbidity: -2; Rev-erbA confirm: 15

Results for O=C(Nc1cccc(Cl)c1)N[C@@H]1CC[C@@H](CCNC(=O)C2CCCCC2)O[C@@H]1CO ?
ERp5 block: 1; Yeast UUG start: -9; GSIS activator: -9

What do the screens show for `COC(=O)c1ccc(CC2(C)C(=O)Nc3ccc(OC(F)(F)F)cc32)o1` (stereo not drawn)?
SMARCA2 activ: 0; Rev-erbA mod: 14; ERp5 block: 5; Yeast UUG start: -6; PDI turbidity: 3

How did CC1(Cc2ccccc2OC(F)(F)F)C(=O)Nc2ccc(OC(F)(F)F)cc21 (stereo not drawn) do in these assays?
SMARCA2 activ: -3; Rev-erbA mod: 73*; ERp5 block: 0; Yeast UUG start: -5; GSIS activator: -48; PDI turbidity: -1; Rev-erbA confirm: 94*; RORg counter: >40

How did COC(=O)c1cccc(CC2(C)C(=O)Nc3ccc(OC(F)(F)F)cc32)c1 (stereo not drawn) do in these assays?
SMARCA2 activ: -1; Rev-erbA mod: 18*; ERp5 block: 2; Yeast UUG start: -1; GSIS activator: 0; PDI turbidity: -1; Rev-erbA confirm: 15*

How did CC1(Cc2ccccc2OC(F)(F)F)C(=O)Nc2cc(-c3ccccc3Cl)ccc21 (stereo not drawn) do in these assays?
SMARCA2 activ: -2; Rev-erbA mod: 6; ERp5 block: 4; Yeast UUG start: -19; GSIS activator: -2; PDI turbidity: 1

How did CC1(Cc2ccccc2OC(F)(F)F)C(=O)Nc2ccc(-c3ccsc3)cc21 (stereo not drawn) do in these assays?
SMARCA2 activ: -4; Rev-erbA mod: 72*; ERp5 block: -1; Yeast UUG start: -8; GSIS activator: 4; PDI turbidity: -4; Rev-erbA confirm: 90*; RORg counter: inactive

What do the screens show for `C[C@@H]1CCCCO[C@H](CN(C)S(=O)(=O)c2cccs2)[C@H](C)CN([C@H](C)CO)C(=O)c2cc(NC(=O)Cc3ccccc3)ccc2O1`?
Yeast UUG start: 20; GSIS activator: -18

How did COc1ccc(-c2nc3ccc(C)cn3c2Cc2ccccc2C(F)(F)F)cc1OC do in these assays?
SMARCA2 activ: -1; Rev-erbA mod: 6; ERp5 block: 3; GSIS activator: -6

An excerpt from the list above, for reference:
What do the screens show for `C[C@@H]1CCCCO[C@H](CN(C)S(=O)(=O)c2cccs2)[C@H](C)CN([C@H](C)CO)C(=O)c2cc(NC(=O)Cc3ccccc3)ccc2O1`?
Yeast UUG start: 20; GSIS activator: -18

How did COc1ccc(-c2nc3ccc(C)cn3c2Cc2ccccc2C(F)(F)F)cc1OC do in these assays?
SMARCA2 activ: -1; Rev-erbA mod: 6; ERp5 block: 3; GSIS activator: -6

Further compounds follow:
What do the screens show for `Cc1ccc2nc(-c3ccc(F)cc3)c(Cc3ccccc3C(F)(F)F)n2c1`?
SMARCA2 activ: 2; Rev-erbA mod: 17*; ERp5 block: 1; Yeast UUG start: -3; GSIS activator: 17; Rev-erbA confirm: -1

How did COc1ccc(-c2nc3ccc(Br)cn3c2Cc2ccccc2C(F)(F)F)cc1OC do in these assays?
SMARCA2 activ: -2; Rev-erbA mod: 16*; ERp5 block: 2; Yeast UUG start: -4; GSIS activator: 16; Rev-erbA confirm: 7

How did COc1cc(-c2cc(C(=O)Nc3cccc(S(=O)(=O)N(C)C)c3)c3ccccc3n2)cc(OC)c1OC do in these assays?
SMARCA2 activ: 8; Rev-erbA mod: 15*; ERp5 block: -1; Yeast UUG start: -2; GSIS activator: -11; PDI turbidity: -7; Rev-erbA confirm: -9

How did COc1ccc2c3c(n(C)c2c1)[C@@H](CO)N(C)CC31CN(C(=O)c2ccccc2F)C1 do in these assays?
ERp5 block: 5; GSIS activator: 6

How did C[C@@H]1CCCCO[C@H](CN(C)C)[C@@H](C)CN([C@H](C)CO)C(=O)c2cc(NC(=O)c3ccccc3)ccc2O1 do in these assays?
ERp5 block: -2; Yeast UUG start: 0; GSIS activator: 31

How did O=C(Cn1c(=S)[nH]c2ccccc2c1=O)NCCc1ccccc1 do in these assays?
SMARCA2 activ: -2; Rev-erbA mod: 31*; ERp5 block: -1; GSIS activator: -3; PDI turbidity: 0; Rev-erbA confirm: 31*; RORg counter: >40

How did O=C(CCn1c(=S)[nH]c2ccccc2c1=O)NCCSCc1ccccc1 do in these assays?
SMARCA2 activ: -3; Rev-erbA mod: 3; ERp5 block: 2; Yeast UUG start: -15; GSIS activator: 10; PDI turbidity: 6

How did Cc1ccc(O)c(N=Nc2nccs2)c1 do in these assays?
SMARCA2 activ: 0; Rev-erbA mod: 20*; ERp5 block: 1; Yeast UUG start: -14; GSIS activator: 3; PDI turbidity: 8; Rev-erbA confirm: 7

How did CC=Cc1ccc2n(c1=O)C[C@H]1[C@H](CO)[C@@H](C(=O)NCC3CC3)[C@@H]2N1Cc1ccccc1OC (mixture of isomers) do in these assays?
ERp5 block: 1; GSIS activator: 6

What do the screens show for `O=C(Nc1nnc(-c2ccccc2Cl)s1)c1ccccc1F`?
SMARCA2 activ: -1; Rev-erbA mod: 27*; ERp5 block: 9; Yeast UUG start: -1; GSIS activator: -6; PDI turbidity: -4; Rev-erbA confirm: 3

Results for O=C(Nc1nnc(-c2ccccc2)s1)c1ccccc1F ?
SMARCA2 activ: 1; Rev-erbA mod: -3; ERp5 block: 4; Yeast UUG start: -11; GSIS activator: 4
